Chains of the proteins cited; added tags and fusions are not shown. Residues count along the entry.
UniProt P22303, 32-614 limits assumed: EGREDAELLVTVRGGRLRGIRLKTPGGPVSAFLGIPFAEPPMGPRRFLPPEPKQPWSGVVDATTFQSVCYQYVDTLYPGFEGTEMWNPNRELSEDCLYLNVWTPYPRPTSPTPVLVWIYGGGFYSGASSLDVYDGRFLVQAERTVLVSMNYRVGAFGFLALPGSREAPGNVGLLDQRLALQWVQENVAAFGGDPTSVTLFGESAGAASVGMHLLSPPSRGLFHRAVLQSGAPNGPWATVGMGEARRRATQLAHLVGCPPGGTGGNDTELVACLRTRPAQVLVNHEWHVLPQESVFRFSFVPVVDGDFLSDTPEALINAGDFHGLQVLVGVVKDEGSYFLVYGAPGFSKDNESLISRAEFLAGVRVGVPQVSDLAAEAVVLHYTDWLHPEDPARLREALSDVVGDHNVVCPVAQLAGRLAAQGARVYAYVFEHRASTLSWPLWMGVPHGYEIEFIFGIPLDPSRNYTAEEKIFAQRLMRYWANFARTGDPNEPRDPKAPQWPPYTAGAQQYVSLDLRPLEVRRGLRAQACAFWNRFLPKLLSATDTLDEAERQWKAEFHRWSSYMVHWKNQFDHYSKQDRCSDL

According to ChEMBL document CHEMBL4024757, “Application of the Ugi Multicomponent Reaction in the Synthesis of Reactivators of Nerve Agent Inhibited Acetylcholinesterase” (2017):

How the values were obtained:
Acetylcholinesterase [1] = molecular target: T1, Acetylcholinesterase (Homo sapiens, UniProt P22303); assay: Reactivation of sarin inhibited human erythrocyte AChE using acetylthiocholine iodide as substrate preincubated up to 60 mins followed by substrate addition measured for 3 mins by Ellman's method
Acetylcholinesterase [2] = molecular target: T1, Acetylcholinesterase; assay: Reactivation of cyclosarin inhibited human erythrocyte AChE using acetylthiocholine iodide as substrate preincubated up to 60 mins followed by substrate addition measured for 3 mins by Ellman's method
Acetylcholinesterase [3] = molecular target: T1, Acetylcholinesterase; assay: Reactivation of VX inhibited human erythrocyte AChE using acetylthiocholine iodide as substrate preincubated up to 60 mins followed by substrate addition measured for 3 mins by Ellman's method

`NC(=O)c1cc[n+](COC[n+]2ccc(/C=N/O)cc2)cc1` showed a pKd (Acetylcholinesterase [1]) of 4.30, a pKd (Acetylcholinesterase [2]) of 4.33 and a pKd (Acetylcholinesterase [3]) of 4.94.

pKd: −log10 of the molar value.
